Data on one molecule can be found in publication PMC9555642 (PLoS ONE, 2022).

The chains behind the UniProt entries cited, without tags or fusion partners. Where a name states a change or a piece, a line headed by the entry shows the natural chain unless it says otherwise.
UniProt P56524: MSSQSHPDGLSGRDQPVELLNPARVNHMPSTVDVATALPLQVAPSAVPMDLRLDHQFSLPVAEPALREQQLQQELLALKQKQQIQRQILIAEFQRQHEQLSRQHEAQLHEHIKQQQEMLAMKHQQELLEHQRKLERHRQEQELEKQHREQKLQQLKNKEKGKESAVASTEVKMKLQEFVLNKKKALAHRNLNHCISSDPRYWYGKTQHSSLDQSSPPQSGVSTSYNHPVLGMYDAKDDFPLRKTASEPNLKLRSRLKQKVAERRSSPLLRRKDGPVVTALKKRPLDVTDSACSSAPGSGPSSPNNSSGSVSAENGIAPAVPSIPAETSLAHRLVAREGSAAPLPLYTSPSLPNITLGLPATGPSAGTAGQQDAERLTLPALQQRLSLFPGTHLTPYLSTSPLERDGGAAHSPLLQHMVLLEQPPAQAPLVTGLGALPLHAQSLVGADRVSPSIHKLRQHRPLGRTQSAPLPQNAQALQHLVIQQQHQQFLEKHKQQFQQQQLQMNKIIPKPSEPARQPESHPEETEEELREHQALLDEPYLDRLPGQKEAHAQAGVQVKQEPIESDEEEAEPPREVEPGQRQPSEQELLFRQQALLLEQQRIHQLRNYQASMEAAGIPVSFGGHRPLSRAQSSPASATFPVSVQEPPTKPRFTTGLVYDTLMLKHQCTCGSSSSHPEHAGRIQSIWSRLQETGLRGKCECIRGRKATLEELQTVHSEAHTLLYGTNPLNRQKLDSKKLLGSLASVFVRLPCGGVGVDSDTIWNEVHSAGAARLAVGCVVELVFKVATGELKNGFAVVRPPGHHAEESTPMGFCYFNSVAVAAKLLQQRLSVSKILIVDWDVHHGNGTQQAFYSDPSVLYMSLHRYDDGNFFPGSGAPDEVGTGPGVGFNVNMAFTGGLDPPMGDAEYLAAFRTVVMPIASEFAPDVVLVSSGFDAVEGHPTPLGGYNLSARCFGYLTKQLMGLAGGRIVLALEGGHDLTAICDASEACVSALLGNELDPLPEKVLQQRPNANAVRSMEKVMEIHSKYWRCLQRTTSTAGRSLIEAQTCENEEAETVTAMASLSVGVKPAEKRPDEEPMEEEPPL

This experiment deals with T1, HDAC4 (Homo sapiens, UniProt P56524).
T1 construct: purchased Eurofins Pharma Discovery Services 2493
Description: HDAC enzymatic activity (Eurofins). The class given is biochemical.

`CN1CCc2c(c3ccccc3n2Cc2ccc(C(=O)NO)cc2)C1` [Tubastatin A]: the midpoint of inhibition, the IC50, lay at 910 nM.

Broadly, the IC50 is the concentration at which inhibition is half-maximal.
